Laboratory results reported in publication PMC6430730, “A short peptide potentially promotes the healing of skin wound” (Bioscience Reports, 2019).

Tested on: HaCaT cells
Assay: EGFR inhibitor on the cellular wound healing activity of OA-GL12
Assay type: cell-based, human
Details: Gefitinib 1 μM alone

**Q.** For `COc1cc2ncnc(Nc3ccc(F)c(Cl)c3)c2cc1OCCCN1CCOCC1` [Gefitinib], which “repair rates of scratch” value is on record?
**A.** Its value is “lower when compared with vehicle”.
